# Measurements published in US20110060036A1, “Branched Multifunctional Nanoparticle Conjugates And Their Use” (EMORY UNIVERSITY, priority 2008, published 2011).
# Columns and labels:
# [1] = system: MDA-MB-231 tumor; assay: In-vivo imaging and biodistribution in MDA-MB-231 tumor-bearing nude mice; design: species or system athymic nude mice
# Experimental: Athymic nude mice were purchased from Charles River and housed in a specific pathogen-free animal facility at Emory University. In-vivo imaging, blood circulation and biodistribution studies were performed. MDA-MB-231 tumor model was used for testing the in-vivo imaging of these polymer-drug conjugates. Three weeks before the test, the cells were harvested and 5×10^6 cells were suspended in a mixture of 50 μL culture medium and 50 μL Matrigel. The cells were injected into the mammary fat pad of athymic nude mice. When the size of the tumor reached 400-500 mm^3, the near infrared dye (Cy5.5, GE healthcare) labeled conjugates were systemically injected. Polymer drugs containing 10 nmol of cy5.5 were injected into mice through the tail vein. […] For biodistribution studies, mice were killed at time point of 6 and 144 hours to collect major organs and tumors for quantification of cy5.5 fluorescence in organs and tumors.
# In-vivo delivery of nanoparticles to solid tumors is a complex process, and can be achieved by both passive and active targeting mechanisms, as shown in FIG. 3A. […] This finding also confirms that in this case the amount of nanoparticles delivered to tumor tissues is primarily determined by the extravasation of nanoparticles (FIG. 3A) though the leaky vascular structures formed during the fast and defective angiogenesis. […]
# [2] = system: MDA-MB-231 breast cancer cell line; assay: MTT cytotoxicity assay; assay type: cell-based, human; settings: two different concentrations, treated 4 hours, 48 hours incubation
# Experimental: The cytotoxicity of these conjugates was tested on multiple cancer cell lines. Cytotoxicity effects of the PG-drug conjugates were evaluated by using a standard 3-(4,5-dimethylthiazol-2-yl)-2,5-diphenyl tetrazolium bromide (MTT) assay. The cells were cultured in RPMI 1640 containing 100 units/mL penicillin G, 100 ug/mL streptomycin sulfate. The medium was supplemented with 10% heat-inactivated fetal bovine serum. The tumor cells were cultured in tissue culture flask in a humidified incubator at 37° C. in an atmosphere of 5% CO2 and 95% air. Cancer cells (about 60% confluency) were treated with drug conjugates or free drug (added as DMSO solution) for 4 hours, and then culture medium was replaced with fresh one. After 48 hours incubation, MTT solution was added (incubated for 2 hours) and UV-vis absorption was measured at 490 nm with 670 nm as the reference wavelength.
# FIG. 1E summarizes the cytotoxicity test results for the conjugates compared to free TX added as DMSO solution.
substance,measurement,setting,value
PG-2′-O— succinyl-paclitaxel [GT],"accumulation at tumor sites, in-vivo optical imaging","[1]; tumors 400-500 mm^3, 6 hours after tail vein injection, increasing over 48 hours",accumulation at the tumor sites
same,accumulation in barely palpable tumors,[1]; tumors about 2-3 mm in diameter,very little signal above the background
same,cytotoxicity,[2],killed a significant amount of cells
